Columns and labels:
[1] = molecular target: T1, serotonin S2 (5-HT2) receptors (Rattus norvegicus, UniProt P14842); test: inhibition of 3H-ketanserin binding to serotonin S2 (5-HT2) receptors in rat cortex in vitro; settings: 3H-ketanserin 0.5 nM, rat cortex membranes, read-out: Binding IC50, 3H Ket.
T1 construct: cortical tissue is dissected and weighed; from tissue; host or cells: cerebral cortex membranes of male Wistar (Mol:Wist) rats
Procedure: INHIBITION OF ^3 H-KETANSERIN BINDING TO SEROTONIN S2 (5-HT2)RECEPTORS IN RAT CORTEX IN VITRO
By this method the inhibition by drugs of the binding of ^3 H-Ketanserin (0.5 nM) to Serotonin S2 (5-HT2) receptors in membranes from rat is determined in vitro. Method in Hyttel, Pharmacology & Toxicology, 61, 126-129. 1987.
Male Wistar (Mol:Wist) rats (125-250 g) are sacrifices and cortical tissue is dissected and weighed. The tissue is homogenized (Ultra Turrax, 10 sec.) in 10 ml of ice-cold 50 mM tris buffer pH 7.7 (at 25° C.). The centrifuge glassware used in this step has been rinsed by sonication for 10 min. in ethanol. The homogenate is centrifuged twice at 20,000 g for 10 min. at 4° C. with rehomogenization of the pellet in 10 ml ice-cold buffer. The final pellet is homogenized in 500 vol (w/v) ice-cold buffer.
(§1) Incubation tubes kept on ice in triplicate receive 100 μl of drug solution in water (or water for total binding) and 2000 μl of tissue suspension (final tissue content corresponds to 4 mg original tissue). […] After shaking for 1 h and storage 2 hrs in the dark the content of radioactivity is determined by liquid scintillation counting. […]
(§2) The measured cpm are plotted against drug concentration on semilogarithmic paper and the best fitting S-shaped curve is drawn. […]

The chains behind the UniProt entries cited, without tags or fusion partners.
UniProt P14842, whole entry: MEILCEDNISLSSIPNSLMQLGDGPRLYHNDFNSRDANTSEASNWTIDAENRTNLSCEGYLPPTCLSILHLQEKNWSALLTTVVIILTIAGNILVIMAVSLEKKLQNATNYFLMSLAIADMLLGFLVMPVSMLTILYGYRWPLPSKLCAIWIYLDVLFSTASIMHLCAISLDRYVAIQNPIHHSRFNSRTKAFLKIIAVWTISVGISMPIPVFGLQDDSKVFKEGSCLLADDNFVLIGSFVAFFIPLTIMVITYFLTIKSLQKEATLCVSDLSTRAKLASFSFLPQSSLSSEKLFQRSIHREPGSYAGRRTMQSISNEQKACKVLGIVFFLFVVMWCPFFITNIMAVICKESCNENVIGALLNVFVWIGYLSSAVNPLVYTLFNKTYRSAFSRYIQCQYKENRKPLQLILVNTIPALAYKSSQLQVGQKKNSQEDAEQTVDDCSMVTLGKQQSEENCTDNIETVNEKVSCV
UniProt P61169, whole entry: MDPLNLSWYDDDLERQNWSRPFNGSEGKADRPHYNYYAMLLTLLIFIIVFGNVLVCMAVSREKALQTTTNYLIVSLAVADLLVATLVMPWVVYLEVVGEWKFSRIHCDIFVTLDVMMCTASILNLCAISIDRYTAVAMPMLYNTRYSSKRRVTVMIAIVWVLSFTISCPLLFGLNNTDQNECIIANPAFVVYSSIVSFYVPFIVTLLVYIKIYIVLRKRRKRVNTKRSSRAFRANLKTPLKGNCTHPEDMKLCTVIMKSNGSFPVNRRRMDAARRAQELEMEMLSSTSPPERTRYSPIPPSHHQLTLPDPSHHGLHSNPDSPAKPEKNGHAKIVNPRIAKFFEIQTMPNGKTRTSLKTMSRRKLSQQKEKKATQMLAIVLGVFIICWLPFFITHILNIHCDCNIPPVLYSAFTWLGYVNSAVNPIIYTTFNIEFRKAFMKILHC

dopamine D-2 receptors = molecular target: T2, dopamine D-2 receptors (Rattus norvegicus, UniProt P61169); test: inhibition of 3H-spiperone binding to dopamine D-2 receptors in rat corpus striatum in vitro; settings: 3H-spiperone 0.5 nM, rat corpus striatum membranes, read-out: Binding IC50, 3H Spi.
T2 construct: striatal tissue is dissected and weighed; from tissue; host or cells: corpus striatum membranes of male Wistar rats
Procedure: INHIBITION OF ^3 H-SPIPERONE BINDING TO DOPAMINE D-2 RECEPTORS IN RAT CORPUS STRIATUM IN VITRO
By this method the inhibition by drugs of the binding of ^3 H-spiperone (0.5 nM) to dopamine D-2 receptors in membranes from rat corpus striatum is determined in vitro. Method and results in Hyttel and Larsen, J. Neurochem, 44, 1615-1622, 1985).
Male Wistar (Mol:Wistar) rats (125-250 g) are sacrificed and striatal tissue is dissected and weighed. The tissue is homogenized (Ultra Turrax, 10 sec.) in 10 ml of ice-cold 50 mM K-phosphate buffer pH 7.4 (at 25° C.). The homogenate is centrifuged twice at 20,000 g for 10 min. at 4° C. with rehomogenization of the pellet in 10 ml ice-cold buffer. The final pellet is homogenized in 1300 vol (w/v) ice-cold buffer.
as §1, with “4000” for “2000”, “3.08” for “4”, “tissue). The binding experimental is initiated by addition of 100 μl of ^3 H-spiperone (final concentration 0.5 nM) and by placing the tubes in a 37° C. water bath.” for “tissue).”
as §2

For `O=C1NCCN1CCN1CCC(c2cn(-c3ccc(F)cc3)c3ccc(Cl)cc23)CC1` [sertindole (Lu 23-174), 5-chloro-1-(4-fluorophenyl)-3-[1-[2-(2-imidazolidinon-1-yl)ethyl]-4-piperidyl]-1H-indole, reference compound], the IC50 [1] was 0.72 nM and the IC50 (dopamine D-2 receptors) was 4.1 nM.

Source: patent publication US5216001A, “Indole derivatives” (H. Lunbeck A/S, priority 1990, dated 1993)
